Target: β-catenin/BCL9 PPI (Homo sapiens (Human), UniProt P35222)
Test: AlphaScreen competitive inhibition assay, wild-type β-catenin/BCL9 PPI
Type: binding
Conditions: mean ± SD (n=3)
Experimental: Cells were cultured in LB medium with 30 μg/mL kanamycin until the OD600 was approximately 0.8, and then protein expression was induced with 400 μM of IPTG at 20° C. overnight. Cells were lysed by sonication. […] Native non-denaturing gel electrophoresis was performed to confirm the homogeneity of the purified proteins. Thermal-shift assay was performed on an iCycler iQ Real Time Detection System (Bio-Rad) to monitor protein stability and detect protein aggregation. Protein unfolding was evaluated through measuring the fluorescence changes of fluorescent dye Sypro Orange when interacting with wild-type or mutant β-catenin proteins. A temperature increment of 1°/min was applied. […] All spectra were recorded at room temperature, and the baseline control containing all of the substances except protein. Sample were prepared at a concentration around 1-5 μM in a buffer of 10 mM potassium phosphate and 100 mM potassium fluoride at pH 7.0 to ensure that the transmission of light through the sample was not restricted. […] Proteins were aliquoted and stored at −80° C.
25. Alphascreen Competitive Inhibition Assays Using Wild-Type and Mutant β-Catenin Proteins

Sequences of proteins named here, by UniProt entry; tags and fusion partners are left off. Residues count along the entry.
UniProt P35222, 138-686: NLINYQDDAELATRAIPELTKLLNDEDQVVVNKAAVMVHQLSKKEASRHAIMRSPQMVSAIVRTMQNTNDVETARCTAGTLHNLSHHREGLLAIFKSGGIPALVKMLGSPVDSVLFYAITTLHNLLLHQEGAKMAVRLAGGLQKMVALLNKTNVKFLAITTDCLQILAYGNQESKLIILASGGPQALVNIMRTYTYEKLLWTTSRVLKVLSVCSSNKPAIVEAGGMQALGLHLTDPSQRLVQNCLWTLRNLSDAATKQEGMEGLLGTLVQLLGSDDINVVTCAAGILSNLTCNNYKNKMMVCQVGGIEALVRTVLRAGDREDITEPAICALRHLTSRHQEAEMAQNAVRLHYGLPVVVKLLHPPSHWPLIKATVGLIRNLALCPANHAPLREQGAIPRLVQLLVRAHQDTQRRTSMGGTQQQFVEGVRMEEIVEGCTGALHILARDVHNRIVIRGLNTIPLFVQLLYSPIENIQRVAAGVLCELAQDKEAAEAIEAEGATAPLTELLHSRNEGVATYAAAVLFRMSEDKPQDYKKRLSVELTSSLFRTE

In the case of `CC1CCC(c2cc(C(=O)N3CCN(C(=O)c4cc(F)cc(N5CCNCC5)c4)CC3)ccc2O[C@H]2CCNC2)CC1.Cl` (stereo partly drawn) [Compound 12, (S)-(4-(3-fluoro-5-(piperazin-1-yl)benzoyl)piperazin-1-yl) (3-(4-methylcyclohexyl)-4-(pyrrolidin-3-yloxy)phenyl) methanone hydrochloride], the Ki is reported as 16 ± 5.5 µM.

From patent US11542254B2, “Methods and composition of 4-substituted benzoylpiperazine-1-substituted carbonyls as beta-catenin/B-cell lymphoma 9 inhibitors” (University of Utah Research Foundation, priority 2016, dated 2023)
